Compound activity (PubChem BioAssay)
In the library only some 0.46% were active in any assay of this set; here they are far more common.
GIV-Gai inh: inhibitors of GIV GBA-motif binding to rat Galpha-i3; P08753; Galpha-i3/FITC-GIV peptide fluorescence polarization, 90 min; stronger effect = lower value; scaled: aluminum fluoride 0%, vehicle 100%; percent of control (FP), % (test concentration not listed); 210,000 tested, 0.42% active; AID 1224905;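 active = replicate mean at 85% of control or lower, very high polarization wells dropped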;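 note: wells of about 15 µL received 100 nL stock; the first replicate is given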
HCMV NEC inh: cytomegalovirus nuclear egress complex inhibition; 190,000 compounds, 0.15% hits; inhibition, % (no concentration beside the values); HTRF UL50-UL53 interaction, normalized percent inhibition; in the data active = inhibition above about 27%, passing the limit was not always enough
GIV-Gai FP conf: GIV-Galpha-i3 inhibition, FP confirmation. shares compounds with GIV-Gai inh. FITC-GIV peptide binding to Galphai3, fluorescence polarization; stronger effect = lower value. fluorescence polarization, mP at 100 µM. 580 compounds, 38% hits. AID 1259350;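 active = inhibition score of 15 or more, meaning 100 minus mean polarization as percent of control over three replicates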
GIV Gai AS conf: GIV-Galpha-i3 inhibition, AlphaScreen confirmation; shares compounds with GIV-Gai inh; AlphaScreen Galphai3-GIV binding, purified proteins, 90 min; stronger effect = lower value; AlphaScreen counts at 100 µM; 580 compounds, 39% hits; AID 1259351;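 active = inhibition score at or above a set limit, where the score is 100 minus the three-replicate mean percent of control signal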
Each line names hits and unclear results; the compound was inactive in the other large screens (follow-up assays come after a bar, where they were run); ! = not active in a repeat.

O=C1/C(=C/c2cn(-c3ccccc3)nc2-c2cccs2)SC(=S)N1C1CCS(=O)(=O)C1 (stereo unspecified)	none
Cc1ccccc1N1CC(O)(c2ccc(F)cc2)[N+]2=C1SCCC2 (stereo unspecified)	none (no result: HCMV NEC inh)
O=c1[nH]c2nonc2nc1/C=C(\O)c1ccccc1	none
NC(=O)NC(=O)c1nc2nonc2[nH]c1=O	GIV-Gai inh 44.4 | GIV-Gai FP conf 42 | GIV Gai AS conf inactive
Cc1cc(C(=O)CSc2nc(N)nc(N)n2)c(C)n1C1CCS(=O)(=O)C1 (stereo unspecified)	none (no result: GIV-Gai inh)
Oc1ccc(NCc2ccccc2OCc2ccc(Cl)cc2)cc1	none
CCOc1cc(CNc2ccc(O)cc2)ccc1OCc1ccc(Cl)cc1	GIV-Gai inh 76.5 | GIV-Gai FP conf 60.5 | GIV Gai AS conf 10130
CN(Cc1ccccc1)C(=O)c1cc2c(=O)[nH]c3ccccc3c2s1	none | GIV-Gai FP conf inactive | GIV Gai AS conf inactive
CCN(Cc1ccccc1)C(=O)c1cc2c(=O)[nH]c3ccc(C)cc3c2s1	none
Cc1ccc(C)c(NC(=O)c2cccc(S(=O)(=O)N3CCCC3)c2)c1	none (no result: GIV-Gai inh)
Cc1ccc(C(=O)Nc2ccc(S(=O)(=O)O)c3cc(S(=O)(=O)O)cc(S(=O)(=O)O)c23)cc1NC(=O)c1cccc(NC(=O)Nc2cccc(C(=O)Nc3cc(C(=O)Nc4ccc(S(=O)(=O)O)c5cc(S(=O)(=O)O)cc(S(=O)(=O)O)c45)ccc3C)c2)c1	GIV-Gai inh 76.2! | GIV-Gai FP conf 61.2 | GIV Gai AS conf 12181
COc1ccc(-c2nn3c(N4CCN(Cc5ccccc5)CC4)cc(C)nc3c2C)cc1OC	none
COc1ccccc1CNc1nc2ccccc2nc1S(=O)(=O)c1ccc(C)cc1	none
Cc1ccc(S(=O)(=O)c2nc3ccccc3nc2NCCc2ccccc2)cc1	GIV-Gai inh 78.0 | GIV-Gai FP conf inactive | GIV Gai AS conf inactive
COc1ccc(/C=C2\N=C(c3ccc(Cl)cc3)N(c3ccc(C)cc3C)C2=O)cc1OC	none (no result: HCMV NEC inh)
COc1ccc(/C=C2\N=C(c3ccc(Cl)cc3)N(c3cccc(C)c3)C2=O)cc1OC	none (no result: HCMV NEC inh)
COc1ccc(/C=C2\N=C(c3ccc(Cl)cc3)N(c3ccccc3)C2=O)cc1OC	GIV-Gai inh 81.4 (no result: HCMV NEC inh) | GIV-Gai FP conf inactive | GIV Gai AS conf inactive
COc1ccc(/C=C2\N=C(c3ccc(Cl)cc3)N(c3cccc(F)c3)C2=O)cc1OC	none (no result: HCMV NEC inh) | GIV-Gai FP conf inactive | GIV Gai AS conf inactive
Cc1cc(Cl)nc(C(C)C)n1	none (no result: GIV-Gai inh)
Cc1ccc(C(=O)c2cn(CC(=O)NCC3CCCO3)c3nc(C)ccc3c2=O)cc1 (stereo unspecified)	none
CCOC(=O)c1c(-c2ccc(Br)cc2)csc1/N=C/C1C(=O)NC(=S)NC1=O	none (no result: HCMV NEC inh)
CCOC(=O)c1c(-c2ccc(Br)cc2)csc1/N=C/c1c(C)[nH]n(-c2ccccc2)c1=O	GIV-Gai inh 75.2 | GIV-Gai FP conf inactive | GIV Gai AS conf inactive
C=CCn1c(N)c(C(N)=O)sc1=S	none
COC(=O)c1cnn(-c2c(Cl)cccc2Cl)c1C=C(C#N)C#N	none
COC(=O)c1cc(-c2cocc2C=C(C#N)C#N)ccc1Cl	GIV-Gai inh 52.0 | GIV-Gai FP conf inactive | GIV Gai AS conf inactive
OC(Cn1cnc(-c2ccccc2)c1-c1ccccc1)Cn1c2ccc(Cl)cc2c2cc(Cl)ccc21 (stereo unspecified)	none (no result: HCMV NEC inh)
CC(=O)Nc1cc2nc3[nH]c(=S)[nH]c(=O)c3nc2cc1C	none
Cc1cc2nc3c(=O)n(C)c(=O)[nH]c3nc2cc1N=CN(C)C	none | GIV-Gai FP conf 11.5 | GIV Gai AS conf 26021
CCCCCCn1c(=O)[nH]c2nc3cc(N)c(C)cc3nc2c1=O	none
CC(=O)Nc1cc2nc3[nH]c(=O)n(C)c(=O)c3nc2cc1C	GIV-Gai inh 69.3 | GIV-Gai FP conf inactive | GIV Gai AS conf inactive
COc1cccc(C(=O)NCC(=O)NN)c1	none
CCCCOc1ccc(C2=N/C(=C\c3ccc(OC(C)=O)c(OC(C)=O)c3)C(=O)O2)cc1	GIV-Gai inh 72.0 | GIV-Gai FP conf inactive | GIV Gai AS conf inactive
CCCCOc1ccc(C2=N/C(=C\c3ccc(OC)c(OC(C)=O)c3)C(=O)O2)cc1	none
COc1ccccc1NC(=O)c1c(N=Cc2c(O)ccc3ccccc23)cnn1C	none (no result: HCMV NEC inh)
Oc1ccc2ccccc2c1C=Nc1cccn2cc(-c3ccccc3)nc12	GIV-Gai inh -9.9 (no result: HCMV NEC inh) | GIV-Gai FP conf 9.83 | GIV Gai AS conf inactive
O=C(c1coc2ccccc2c1=O)N1CCN(c2ccccc2)CC1	none (no result: GIV-Gai inh)
Ic1cccc2c1N1CCN2CC1	none
O=C(Nc1sc2c(c1C(=O)NCC1CCCO1)CCCC2)c1cc(=O)c2ccccc2o1 (stereo unspecified)	none
COC(=O)c1c(NC(=O)c2cc(=O)c3ccccc3o2)sc2c1CCCC2	none | GIV-Gai FP conf inactive | GIV Gai AS conf inactive
COc1ccc(-c2ccc3cc(Cl)ccc3n2)c(OC)c1	none (no result: GIV-Gai inh)
